How the values were obtained:
D2-receptors = D2-receptors (Homo sapiens, UniProt P14416); conditions: earlier reports (Svendsen et al. 1988); cited from earlier work
Streptococcus strains = assay: Reversal of resistance towards erythromycin; type: cell-based; conditions: compared with the other forms of thioridazine

Protein sequences, listed by entry. Tags and fused reporters are not part of them.
UniProt P14416, whole entry: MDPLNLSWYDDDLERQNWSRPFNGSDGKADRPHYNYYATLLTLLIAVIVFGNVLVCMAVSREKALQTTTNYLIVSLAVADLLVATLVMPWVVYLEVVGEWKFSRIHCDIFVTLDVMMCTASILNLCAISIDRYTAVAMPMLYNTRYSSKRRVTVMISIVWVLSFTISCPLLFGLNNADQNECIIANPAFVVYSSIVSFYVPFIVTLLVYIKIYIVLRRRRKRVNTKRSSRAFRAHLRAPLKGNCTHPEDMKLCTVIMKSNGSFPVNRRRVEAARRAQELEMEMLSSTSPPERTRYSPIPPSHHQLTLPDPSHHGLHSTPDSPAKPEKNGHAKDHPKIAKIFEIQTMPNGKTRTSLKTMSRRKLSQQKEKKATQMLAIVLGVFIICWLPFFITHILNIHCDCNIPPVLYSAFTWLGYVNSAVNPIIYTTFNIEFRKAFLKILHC

SMILES	Receptor affinity / blockade (D2-receptors)	Efficiency in reversing resistance towards erythromycin (Streptococcus strains)
CSc1ccc2c(c1)N(CC[C@@H]1CCCCN1C)c1ccccc1S2 [levorotatory enantiomer, (S)-thioridazine]	weaker blockade of dopamine D2-receptors	much more efficient in reversing resistance towards erythromycin
CSc1ccc2c(c1)N(CC[C@H]1CCCCN1C)c1ccccc1S2 [dextrorotatory isomer, (R)-thioridazine]	high affinity for D2-receptors	–
